Laboratory results as given in ChEMBL document CHEMBL4043269, “Synthesis and structure activity relationships of carbamimidoylcarbamate derivatives as novel vascular adhesion protein-1 inhibitors” (Bioorg Med Chem, 2017).

Experiments:
[1] = target: T1, Amine oxidase [copper-containing] 3 (Homo sapiens, UniProt Q16853); experiment: Inhibition of human VAP-1 expressed in CHO cells preincubated for 20 mins followed by [14C]-benzylamine addition measured after 1 hr by scintillation spectrometric analysis; type: cell-based
T1 sequence (Q16853 whole entry): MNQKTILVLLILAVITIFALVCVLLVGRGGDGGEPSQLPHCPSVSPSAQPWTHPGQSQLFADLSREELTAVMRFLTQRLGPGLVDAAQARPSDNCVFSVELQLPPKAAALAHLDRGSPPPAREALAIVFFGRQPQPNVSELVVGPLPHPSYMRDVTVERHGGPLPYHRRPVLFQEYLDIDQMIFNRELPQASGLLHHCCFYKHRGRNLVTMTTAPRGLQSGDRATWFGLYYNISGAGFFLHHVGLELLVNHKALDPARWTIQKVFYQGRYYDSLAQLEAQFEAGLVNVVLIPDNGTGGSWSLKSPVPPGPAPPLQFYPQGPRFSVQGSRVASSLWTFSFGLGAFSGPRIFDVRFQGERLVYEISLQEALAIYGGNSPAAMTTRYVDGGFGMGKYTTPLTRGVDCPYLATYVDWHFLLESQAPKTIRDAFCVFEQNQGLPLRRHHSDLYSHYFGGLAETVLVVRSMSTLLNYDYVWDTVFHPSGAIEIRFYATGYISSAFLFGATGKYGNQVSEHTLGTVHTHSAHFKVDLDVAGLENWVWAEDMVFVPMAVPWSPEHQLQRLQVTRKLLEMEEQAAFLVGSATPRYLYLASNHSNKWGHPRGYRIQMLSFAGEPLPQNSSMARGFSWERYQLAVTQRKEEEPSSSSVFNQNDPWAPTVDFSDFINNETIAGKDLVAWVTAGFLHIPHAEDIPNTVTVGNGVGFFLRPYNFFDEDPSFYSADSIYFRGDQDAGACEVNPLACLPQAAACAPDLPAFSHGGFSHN

[2] = target: T2, Amine oxidase [copper-containing] 3 (Rattus norvegicus, UniProt O08590); experiment: Inhibition of rat VAP-1 expressed in CHO cells preincubated for 20 mins followed by [14C]-benzylamine addition measured after 1 hr by scintillation spectrometric analysis; type: ADME, cell-based
T2 sequence (O08590 whole entry): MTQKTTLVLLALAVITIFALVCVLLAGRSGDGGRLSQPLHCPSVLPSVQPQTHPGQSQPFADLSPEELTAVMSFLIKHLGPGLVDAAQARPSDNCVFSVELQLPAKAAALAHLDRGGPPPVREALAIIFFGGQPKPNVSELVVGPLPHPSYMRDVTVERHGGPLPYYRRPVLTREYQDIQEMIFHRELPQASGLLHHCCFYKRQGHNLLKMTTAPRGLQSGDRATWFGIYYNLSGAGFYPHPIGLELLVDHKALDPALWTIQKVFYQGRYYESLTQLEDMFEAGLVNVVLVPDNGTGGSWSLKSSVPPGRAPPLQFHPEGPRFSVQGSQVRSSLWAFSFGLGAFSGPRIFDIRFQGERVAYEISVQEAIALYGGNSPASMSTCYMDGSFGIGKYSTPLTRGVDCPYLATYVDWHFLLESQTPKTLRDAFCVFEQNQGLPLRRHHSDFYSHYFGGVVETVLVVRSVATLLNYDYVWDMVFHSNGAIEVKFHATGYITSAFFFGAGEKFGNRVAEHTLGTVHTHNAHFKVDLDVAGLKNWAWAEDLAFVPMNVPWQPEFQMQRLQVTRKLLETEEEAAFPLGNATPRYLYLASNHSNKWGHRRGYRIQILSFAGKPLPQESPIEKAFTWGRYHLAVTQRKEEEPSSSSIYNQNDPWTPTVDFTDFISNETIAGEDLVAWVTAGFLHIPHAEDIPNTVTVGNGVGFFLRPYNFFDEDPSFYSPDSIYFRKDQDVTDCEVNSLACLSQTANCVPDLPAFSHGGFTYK

| pIC50 [1] | pIC50 [2] | Structure (SMILES) |
| --- | --- | --- |
| 7.77 |  | N=C(N)NC(=O)OCc1cccc(N2CCN(c3cccnc3)CC2)c1F.O=C(O)C(O)C(O)C(=O)O |
|  | 8.28 | Cc1ccc(OC2CN(c3cccc(COC(=O)NC(=N)N)c3F)C2)cn1.O=C(O)C(O)C(O)C(=O)O |

pIC50: −log10 of the molar value.
